Experimental data published in PubChem BioAssay AID770 (SRMLSC, 2007).
This is a selection; strong and weak results do not stand in their true shares. Activity calls are given as the source filed them.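 How the source made its calls: active means growth inhibition above 90% in viable cell count at a single dose; inactive means growth inhibition below 90%.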

Assay: HT29 colon tumor cell growth inhibition, primary screen, imaging, high content imaging, 24 h, CellTiter-Glo (AID 770)
Conditions: HT29 cell number by imaging, at 10 µM, stronger effect = higher value

| SMILES | growth inhibition |
| --- | --- |
| CCN(CC)CC(O)COC(=O)C(O)(c1ccccc1)C1CCCCC1 (stereo unspecified) | inactive: 26.7% |
